Data on 1 molecule can be found in PubChem BioAssay AID624114 (Johns Hopkins Ion Channel Center, 2012).

Each structure is given as a SMILES string. This is a selection; strong and weak results do not stand in their true shares. Activity calls are given as the source filed them.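 How the source made its calls: active means calcium fluorescence ratio, averaged over duplicates, at least 3 SD of the buffer-well ratio, meaning a nonspecific response in receptor-free cells; inactive means the rest.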

This test can be described thus: nonspecific Ca2+ flux in HEK293 lacking MrgX1 – cell-based, Fluo-4 calcium flux, duplicate, counter-screen for MrgX1 allosteric activator project, primary screen (AID 624114). The following applies: parental HEK293 calcium flux, Fluo-4 fluorescence ratio; at 10 µM.
Consider `CN(C)C1(CNC(=O)c2ccc(Cl)c(S(N)(=O)=O)c2)CCCCC1`, for which the fluorescence ratio F(max-min)/F0 was inactive: 0.
